From PubChem BioAssay
Cneo AK release = causes C. neoformans cell lysis. lysis activity, % at 15 µM. adenylate kinase release luminescence, 4 h; normalised: neutral wells 0, clomiphene wells 100. hit rate 0.2% among 360,000;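 active means mean lysis activity across replicates of at least 80%, whatever share of replicates individually reach that level; inactive means mean lysis activity below 80%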
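Assay system: C. neoformans cells. Amount: yeast cell density of 5 × 10^6 cells/mL. Technique: AK luminescence. Buffer or medium: YPD. Times: static 4 h at 37 °C with compound, 1 h detection. Dosing: single-point compound dose. Read-out: lysis from increased AK signal.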
PDI turbidity = inhibitors of human protein disulfide isomerase; hit rate 0.052% among 350,000; P07237; AID 588391; PDI insulin aggregation turbidity, A650, 90 min; inhibition, % at 10 µM;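 active means mean inhibition across replicates of 30% or more, whatever share of single replicates reach that level; inconclusive means mean inhibition below 30% while every single replicate reaches 30%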
UUG fidelity = yeast start codon fidelity modulation. S. cerevisiae UUG-firefly luciferase reporter, luminescence/redox ratio. activity score, % at 18.7 µM. 0.13% of 350,000 active;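 active = replicate mean at a twofold rise or more, about +100% in these data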;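 also: firefly luciferase made from a UUG start codon reports start codon fidelity; reporter light over untreated wells divided by growth signal over untreated wells; some hits fall short of that in this replicate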
ERp5 inh = inhibitors of human ERp5; Q15084; ERp5 insulin aggregation, absorbance 650 nm, 90 min; inhibition, % at 9.99 µM; hit rate 0.05% among 350,000;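 active means mean replicate inhibition above about 25%, with every replicate also reaching it, limit read from the data, passing the limit was not always enough; inconclusive means only one of those two criteria met; inactive means neither criterion met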
* = called active by the depositor; ? = inconclusive; · = no result. This is a sample that favours compounds with a hit; in the whole collection about 0.34% have one here.

#1 CCCN1[C@H](C(=O)N2CCCCC2)[C@@H](CO)[C@@H]2Cn3c(cccc3=O)[C@@H]21
#2 C[C@H](CO)N1C[C@H](C)[C@H](CN(C)C(=O)Nc2ccccc2)Oc2ccc(NC(=O)Cn3cnnn3)cc2C1=O
#3 C[C@@H]1CN([C@H](C)CO)C(=O)c2cccc(NC(=O)c3nc4ccccc4s3)c2O[C@H]1CN(C)C(=O)Nc1ccc(C(F)(F)F)cc1
#4 COc1ccc(S(=O)(=O)NCCN2CCOCC2)cc1Br
#5 COc1ccc(S(=O)(=O)NCC(c2ccc(F)cc2)N2CCOCC2)cc1Br (stereo unspecified)
#6 CCC(=O)Nc1ccc2c(c1)OC[C@H](C)N(C(=O)C1CCC1)C[C@H](C)[C@H](OC)CN(C)C2=O
Screen / compound no.,1,2,3,4,5,6
Cneo AK release,-0.4,3.0,-0.6,6.3,-2.2,-4.7
PDI turbidity,·,·,·,-1.2,30.5*,·
UUG fidelity,·,-0.9,-14.8,-6.4,-3.4,-0.8
ERp5 inh,-2.2,14.9,·,-1.6,-1.1,-4.3

#7 Cc1noc(C)c1S(=O)(=O)Nc1ccc2c(c1)CC(=O)N([C@@H](C)CO)C[C@@H](C)[C@@H](CN(C)S(=O)(=O)c1cccs1)O2
#8 Cc1noc(C)c1NC(=O)N(C)C[C@@H]1Oc2ccc(NS(=O)(=O)c3cn(C)cn3)cc2CC(=O)N([C@H](C)CO)C[C@@H]1C
#9 Cc1noc(C)c1S(=O)(=O)Nc1ccc2c(c1)CC(=O)N([C@H](C)CO)C[C@H](C)[C@@H](CN(C)S(=O)(=O)c1cn(C)cn1)O2
#10 C[C@@H]1CN([C@H](C)CO)C(=O)c2c(c3ccccc3n2C)-c2ccccc2CO[C@H]1CN(C)S(=O)(=O)c1cccs1
#11 Cc1noc(C)c1S(=O)(=O)Nc1ccc2c(c1)CC(=O)N([C@@H](C)CO)C[C@H](C)[C@H](CN(C)S(=O)(=O)c1cn(C)cn1)O2
#12 Cc1noc(C)c1NC(=O)N(C)C[C@H]1Oc2ccc(NS(=O)(=O)c3cn(C)cn3)cc2CC(=O)N([C@H](C)CO)C[C@H]1C
Screen / compound no.,7,8,9,10,11,12
Cneo AK release,105.8*,-1.5,110.4*,90.4*,-3.2,102.4*
PDI turbidity,·,·,·,·,·,·
UUG fidelity,18.2,-6.2,13.1,·,9.7,-10.5
ERp5 inh,6.1,1.6,5.3,0.2,-5.4,1.6

#13 Cc1noc(C)c1S(=O)(=O)Nc1ccc2c(c1)CC(=O)N([C@@H](C)CO)C[C@H](C)[C@H](CN(C)S(=O)(=O)c1cccs1)O2
#14 C[C@@H]1CN([C@H](C)CO)S(=O)(=O)c2ccc(-c3ccncc3)cc2O[C@@H]1CN(C)C(=O)c1cccc(F)c1
#15 CCCNC(=O)N1[C@H](CO)[C@H](c2ccc(C3=CCCCC3)cc2)[C@H]1CNC(C)C
#16 O=C(NCCCN1CCCC1)c1ccc(CS(=O)(=O)c2c(Cl)cccc2Cl)o1
#17 O=C(C[C@@H]1C[C@H]2c3cc(NS(=O)(=O)c4ccccc4)ccc3O[C@H]2[C@@H](CO)O1)NCC1CC1
#18 COC(=O)C1C(c2ccccc2)C(C(=O)O)C1c1ccccc1 (stereo unspecified)
Screen / compound no.,13,14,15,16,17,18
Cneo AK release,0.6,-2.8,·,-1.1,-0.9,3.6
PDI turbidity,·,·,·,-5.9,·,3.6
UUG fidelity,9.5,-3.6,·,-1.6,-17.7,7.1
ERp5 inh,7.3,-7.8,5.3,26.2*,-6.1,-1.9

Filtered by structure, those above with bromine.
#4 COc1ccc(S(=O)(=O)NCCN2CCOCC2)cc1Br
#5 COc1ccc(S(=O)(=O)NCC(c2ccc(F)cc2)N2CCOCC2)cc1Br (stereo unspecified)
Screen / compound no.,4,5
Cneo AK release,6.3,-2.2
PDI turbidity,-1.2,30.5*
UUG fidelity,-6.4,-3.4
ERp5 inh,-1.6,-1.1

The results go on.
#19 O=C(O)C1C(c2ccccc2)C(C(=O)Oc2ccc(O)cc2)C1c1ccccc1 (stereo unspecified)
#20 O=C(O)c1cc(O)c2c(c1)[C@@H]([C@H]1c3cc(C(=O)O)cc(O)c3C(=O)c3c(O[C@@H]4O[C@H](CO)[C@@H](O)[C@H](O)[C@H]4O)cccc31)c1cccc(OC3O[C@H](CO)[C@@H](O)[C@H](O)[C@H]3O)c1C2=O (stereo partly specified)
#21 O=C(O)c1cc(O)c2c(c1)[C@H]([C@H]1c3cc(C(=O)O)cc(O)c3C(=O)c3c(O[C@@H]4O[C@H](CO)[C@@H](O)[C@H](O)[C@H]4O)cccc31)c1cccc(OC3O[C@H](CO)[C@@H](O)[C@H](O)[C@H]3O)c1C2=O (stereo partly specified)
#22 Cc1noc(C)c1NC(=O)N(C)C[C@@H]1OCCCC[C@H](C)Oc2ccc(NS(=O)(=O)c3cccs3)cc2C(=O)N([C@@H](C)CO)C[C@@H]1C
#23 COc1ccccc1NC(=O)N[C@@H]1CC[C@H](CCn2cc(-c3ccccc3OC)nn2)O[C@H]1CO
#24 COc1ccccc1NC(=O)N[C@@H]1CC[C@@H](CCn2cc(C3(O)CCCC3)nn2)O[C@H]1CO
Screen / compound no.,19,20,21,22,23,24
Cneo AK release,-2.8,-1.3,-1.0,0.5,106.6*,94.3*
PDI turbidity,46.0*,?,46.6*,·,·,·
UUG fidelity,-9.3,-13.4,-15.5,4.8,3.2,·
ERp5 inh,·,0.3,-2.8,-1.6,11.2,3.2

#25 COc1ccccc1NC(=O)N[C@@H]1CC[C@@H](CCn2cc(C3(O)CCCC3)nn2)O[C@@H]1CO
#26 COc1cccc(-c2cn(CC[C@@H]3CC[C@@H](NC(C)=O)[C@H](CO)O3)nn2)c1
#27 COc1ccc(S(=O)(=O)Nc2cccc3c2O[C@@H](CN(C)S(=O)(=O)c2cn(C)cn2)[C@@H](C)CN([C@@H](C)CO)C3=O)cc1
#28 CN1CCN(CCCNC(=O)c2ccc(/C=C3\Oc4ccccc4N(Cc4ccccc4F)C3=O)cc2)CC1
#29 CO[C@@H]1CN(C)C(=O)c2cc(NS(=O)(=O)c3cn(C)cn3)ccc2OC[C@H](C)NC[C@H]1C
#30 O=C(c1cccc(F)c1)N1C[C@H]2[C@@H](c3ccccc31)[C@@H](CO)N2Cc1cocn1
Screen / compound no.,25,26,27,28,29,30
Cneo AK release,-0.3,113.5*,-0.1,107.7*,·,99.8*
PDI turbidity,·,·,·,-4.9,·,·
UUG fidelity,·,24.6,-4.1,-2.7,·,21.7
ERp5 inh,10.8,-2.8,9.9,-5.5,-0.4,4.0

Part of the list above, showing only UUG fidelity, Cneo AK release and ERp5 inh:
| No. | SMILES | UUG fidelity | Cneo AK release | ERp5 inh |
| --- | --- | --- | --- | --- |
| 27 | COc1ccc(S(=O)(=O)Nc2cccc3c2O[C@@H](CN(C)S(=O)(=O)c2cn(C)cn2)[C@@H](C)CN([C@@H](C)CO)C3=O)cc1 | -4.1 | -0.1 | 9.9 |
| 28 | CN1CCN(CCCNC(=O)c2ccc(/C=C3\Oc4ccccc4N(Cc4ccccc4F)C3=O)cc2)CC1 | -2.7 | 107.7* | -5.5 |

(more compounds)
#31 O=C(c1ccccc1)N1C[C@@H]2[C@H](c3ccccc31)[C@H](CO)N2Cc1cocn1
#32 CCCNC(=O)N1CC2(C1)[C@H](c1ccccc1)[C@H](CO)N2C(=O)CC1CC1
#33 Cc1ccc(C2CCN(C(=S)NC(C)(C)C)C2)cc1 (stereo unspecified)
#34 Cc1ccc(C2CCN(C(=S)NC3CCCCC3)C2)cc1 (stereo unspecified)
#35 S=C(NCCCc1ccccc1)Nc1ccccc1
#36 S=C(NCCc1ccc(Cl)cc1)NCc1ccccc1
Screen / compound no.,31,32,33,34,35,36
Cneo AK release,-1.6,·,·,119.1*,104.2*,114.5*
PDI turbidity,·,·,10.7,-1.4,-4.2,-5.9
UUG fidelity,-5.5,·,·,-3.1,-22.8,-37.8
ERp5 inh,0.9,-0.3,1.2,3.6,8.8,·

#37 S=C(NCCCc1ccccc1)Nc1ccc(Cl)cc1
#38 Cc1c(Cl)cccc1NC(=S)NCCc1ccc(Cl)cc1
#39 C[C@H]1CN([C@@H](C)CO)C(=O)c2cc(NC(=O)CCCCCC(=O)Nc3ccccc3N)ccc2O[C@H]1CN(C)C(=O)Nc1ccc(F)cc1
#40 COc1ccc(NC(=O)Nc2ccc3c(c2)C(=O)N([C@H](C)CO)C[C@H](C)[C@@H](CN(C)S(C)(=O)=O)OCCCC[C@@H](C)O3)cc1
#41 CS(=O)(=O)c1ccc(C(=O)OCC(=O)N2CCN(CCC3CCCCC3)CC2)cc1[N+](=O)[O-]
#42 C[C@@H]1CN([C@@H](C)CO)C(=O)Cc2cc(NC(=O)c3ccncc3)ccc2O[C@H]1CN(C)Cc1ccncc1
#43 C[C@H]1CN([C@@H](C)CO)C(=O)Cc2cc(NC(=O)C3CC3)ccc2O[C@H]1CN(C)Cc1ccc(-c2ccccc2)cc1
Screen / compound no.,37,38,39,40,41,42,43
Cneo AK release,·,113.1*,·,56.7,-0.5,100.0*,112.0*
PDI turbidity,0.7,-0.7,·,·,91.5*,·,·
UUG fidelity,·,-15.5,·,35.1,-3.6,21.6,41.9
ERp5 inh,·,1.9,-1.3,-0.2,0.5,-0.8,-3.7
